Measurements: paper PMC4281354, “The opioid receptor pharmacology of GSK1521498 compared to other ligands with differential effects on compulsive reward-related behaviours” (Psychopharmacology, 2014)

Chains of the proteins cited; added tags and fusions are not shown. Lines headed by an entry give the natural chain unless they say otherwise; changes in a name come on top.
UniProt P41145: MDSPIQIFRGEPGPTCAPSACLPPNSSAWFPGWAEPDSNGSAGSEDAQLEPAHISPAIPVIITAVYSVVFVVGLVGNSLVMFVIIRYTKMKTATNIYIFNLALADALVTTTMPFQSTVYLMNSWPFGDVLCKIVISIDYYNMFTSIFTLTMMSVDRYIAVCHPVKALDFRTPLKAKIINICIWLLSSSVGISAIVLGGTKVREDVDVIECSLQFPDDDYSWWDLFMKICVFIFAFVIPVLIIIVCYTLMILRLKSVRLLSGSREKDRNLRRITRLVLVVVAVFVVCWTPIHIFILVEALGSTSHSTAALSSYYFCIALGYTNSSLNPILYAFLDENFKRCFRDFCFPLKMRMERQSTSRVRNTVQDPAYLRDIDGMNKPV
UniProt P35372, whole entry: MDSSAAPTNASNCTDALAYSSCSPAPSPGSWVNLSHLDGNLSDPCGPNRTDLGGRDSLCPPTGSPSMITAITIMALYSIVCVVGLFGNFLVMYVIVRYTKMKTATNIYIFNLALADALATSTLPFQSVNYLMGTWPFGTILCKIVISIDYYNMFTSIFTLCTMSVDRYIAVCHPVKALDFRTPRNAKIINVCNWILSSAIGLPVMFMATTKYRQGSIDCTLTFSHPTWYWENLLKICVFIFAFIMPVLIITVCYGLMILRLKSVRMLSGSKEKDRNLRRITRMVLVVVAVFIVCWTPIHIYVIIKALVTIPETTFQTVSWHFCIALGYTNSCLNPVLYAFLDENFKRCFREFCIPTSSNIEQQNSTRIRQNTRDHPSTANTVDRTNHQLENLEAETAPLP
UniProt P41143, whole entry: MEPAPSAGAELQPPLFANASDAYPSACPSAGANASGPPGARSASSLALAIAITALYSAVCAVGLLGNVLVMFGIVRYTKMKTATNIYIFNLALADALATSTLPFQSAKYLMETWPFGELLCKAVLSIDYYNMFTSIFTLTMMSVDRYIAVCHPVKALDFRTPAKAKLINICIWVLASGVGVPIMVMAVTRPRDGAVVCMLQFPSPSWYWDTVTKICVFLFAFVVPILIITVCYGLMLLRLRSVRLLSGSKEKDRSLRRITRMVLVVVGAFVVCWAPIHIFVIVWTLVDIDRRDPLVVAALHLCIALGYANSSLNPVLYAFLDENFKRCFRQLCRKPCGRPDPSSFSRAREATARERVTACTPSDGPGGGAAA

What was measured:
human KOPr = human KOPr (Homo sapiens, UniProt P41145); assay: Antagonism of dynorphin-stimulated [35S]GTPγS binding, CHO membranes overexpressing KOPr (SPA, antagonist mode); assay type: biochemical
MOPr [1] = molecular target: T1, MOPr (Homo sapiens, UniProt P35372); assay: Antagonism of Met-Enk-stimulated [35S]GTPγS binding, CHO membranes overexpressing MOPr (SPA, antagonist mode); assay type: biochemical
MOPr [2] = molecular target: T1, MOPr; assay: [3H]naloxone competition displacement binding, MOPr-HEK293 membranes
MOPr [3] = molecular target: T1, MOPr; assay: Basal [35S]GTPγS binding, membranes from CHO cells expressing a low level of MOPr; assay type: biochemical
MOPr [4] = molecular target: T1, MOPr; assay: [3H]naloxone dissociation kinetics from MOPr, MOPr-HEK293 membranes; assay type: binding
MOPr [5] = molecular target: T1, MOPr; assay: Basal [35S]GTPγS binding, CHO membranes overexpressing MOPr (agonist mode); assay type: biochemical
human DOPr = human DOPr (Homo sapiens, UniProt P41143); assay: Antagonism of Met-Enk-stimulated [35S]GTPγS binding, CHO membranes overexpressing DOPr (SPA, antagonist mode); assay type: biochemical; settings: vs Met-Enk, CHO cells overexpressing DOPr; mean ± SEM of three experiments

## Oc1ccc2c3c1O[C@H]1[C@H](O)CC[C@@]4(O)[C@@H](C2)N(CC2CC2)CC[C@]314 [6β-Naltrexol, 6-β-naltrexol, reference compound]
Human KOPr
  Antagonist potency (fpKi) KOPr: 8.52 ± 0.05
MOPr [1]
  Antagonist potency (fpKi) MOPr: 8.72 ± 0.11
  blockade of MOPr activation by exogenous agonist: about 70%
  completeness of inhibition of the agonist response at MOPr: did not produce complete inhibition
MOPr [2]
  Affinity of binding (pKi) to MOPr: 9.12 ± 0.09 (n = 6)
  maximum displacement of specific 3H-naloxone binding: 100%
MOPr [3]
  effect on basal level of GTPγS binding: did not modify
MOPr [4]
  rate of 3H-naloxone dissociation in the presence of drug: unchanged
MOPr [5]
  enhancement of basal [35S]GTPγS binding: 30%
Human DOPr
  Antagonist potency (fpKi) DOPr: 7.71 ± 0.10
